This is an account of results in ChEMBL document CHEMBL1136157, “Synthesis of 3a,4-dihydro-3H-[1]benzopyrano[4,3-c]isoxazoles, displaying combined 5-HT uptake inhibiting and alpha(2)-adrenoceptor antagonistic activities: a novel series of potential antidepressants” (Bioorg Med Chem Lett, 2003).

By UniProt entry, the sequences of proteins in these tests, tags left out.
UniProt P08913, whole entry: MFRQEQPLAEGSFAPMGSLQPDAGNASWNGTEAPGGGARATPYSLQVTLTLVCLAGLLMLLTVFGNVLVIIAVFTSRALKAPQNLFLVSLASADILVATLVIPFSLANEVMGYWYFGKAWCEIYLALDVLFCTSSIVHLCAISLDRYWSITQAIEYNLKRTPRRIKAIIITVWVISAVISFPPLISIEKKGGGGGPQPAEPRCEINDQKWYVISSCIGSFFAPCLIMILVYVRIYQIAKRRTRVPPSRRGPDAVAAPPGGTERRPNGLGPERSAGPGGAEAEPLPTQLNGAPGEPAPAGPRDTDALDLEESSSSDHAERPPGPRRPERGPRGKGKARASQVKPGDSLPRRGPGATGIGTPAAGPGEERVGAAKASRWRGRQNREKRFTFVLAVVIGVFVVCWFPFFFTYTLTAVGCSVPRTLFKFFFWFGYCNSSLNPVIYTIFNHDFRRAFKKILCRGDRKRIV

Each structure is given as a SMILES string.

For this assay, the target named is Alpha-2A adrenergic receptor (Homo sapiens, UniProt P08913). Put plainly: In vitro binding affinity towards human alpha-2A adrenergic receptor using [3H]rauwolscine.
In general, Ki refers to the equilibrium dissociation constant of an inhibitor or competing ligand from its target. In turn, `COc1cccc2c1CCC[C@H]2CN(C)CCc1ccc2ccoc2c1` had a Ki of 2.4 nM. This counts as single-digit nanomolar. Under `COc1cc2c(cc1OC)C1=NOC(CN3CCN(C/C=C(\C)c4ccccc4)CC3)C1CO2` (centres undefined) stands 1.4 nM; under `COc1cc2c(cc1OC)C1=NO[C@@H](CN3CCN(C/C=C\c4ccccc4)CC3)[C@@H]1CO2`, 23 nM. Under `COc1cc2c(cc1OC)C1=NOC(CN3CCN(C/C(C)=C/c4ccccc4)CC3)C1CO2` (centres undefined) stands 0.8 nM; under `COc1cc2c(cc1OC)C1=NOC(CN3CCN(C/C=C/c4ccccc4)CC3)C1CO2` (centres undefined), 8.8 nM; under `COc1cc2c(cc1OC)C1=NOC(CN3CCN(Cc4ccc5ccccc5c4)CC3)C1CO2` (centres undefined), 5 nM. `COc1cc2c(cc1OC)C1=NO[C@@H](CN3CCN(C/C=C/c4ccccc4)CC3)[C@@H]1CO2` (stereo in doubt; (+)5) came in with a Ki of 2.6 nM. `COc1cc2c(cc1OC)C1=NO[C@@H](CN3CCN(C/C(C)=C/c4ccccc4)CC3)[C@@H]1CO2` (stereo in doubt; (+)15f) showed a Ki of 0.3 nM. Under `COc1cc2c(cc1OC)C1=NO[C@@H](CN3CCN(C/C=C(\C)c4ccccc4)CC3)[C@@H]1CO2` (stereo in doubt; (+)15g) stands 0.3 nM.

`COc1cc2c(cc1OC)C1=NO[C@@H](CN3CCN(Cc4ccc5ccccc5c4)CC3)[C@@H]1CO2` (stereo in doubt; (+)15h) had a Ki of 1.3 nM. `COc1cc2c(cc1OC)C1=NO[C@@H](CN3CCN(C/C=C/c4ccccc4)CC3)[C@@H]1CO2` (stereo in doubt; (-)5): the affinity corresponds to a Ki of 25 nM. Under `COc1cc2c(cc1OC)C1=NO[C@@H](CN3CCN(C/C(C)=C/c4ccccc4)CC3)[C@@H]1CO2` (stereo in doubt; (-)15f) stands 16 nM. Under `COc1cc2c(cc1OC)C1=NO[C@@H](CN3CCN(C/C=C(\C)c4ccccc4)CC3)[C@@H]1CO2` (stereo in doubt; (-)15g) stands 30 nM; under `COc1cc2c(cc1OC)C1=NO[C@@H](CN3CCN(Cc4ccc5ccccc5c4)CC3)[C@@H]1CO2` (stereo in doubt; (-)15h), 93 nM.
